Assay results from PubChem BioAssay AID720522 (National Center for Advancing Translational Sciences (NCATS), 2013).
Most of the hits are listed elsewhere, so they are rarer here than in the full data. Inconclusive results are not listed. The source made the active and inactive calls. The call rests on the fitted dose curve; in most records, active means well fitted inhibition curve with a large enough effect; inconclusive means small, poorly fitted or top-dose-only effect; inactive means flat fitted curve, though single readings scatter.

Amino acid sequences for entries named in this document (tags omitted).
UniProt P08659, whole entry, looked up: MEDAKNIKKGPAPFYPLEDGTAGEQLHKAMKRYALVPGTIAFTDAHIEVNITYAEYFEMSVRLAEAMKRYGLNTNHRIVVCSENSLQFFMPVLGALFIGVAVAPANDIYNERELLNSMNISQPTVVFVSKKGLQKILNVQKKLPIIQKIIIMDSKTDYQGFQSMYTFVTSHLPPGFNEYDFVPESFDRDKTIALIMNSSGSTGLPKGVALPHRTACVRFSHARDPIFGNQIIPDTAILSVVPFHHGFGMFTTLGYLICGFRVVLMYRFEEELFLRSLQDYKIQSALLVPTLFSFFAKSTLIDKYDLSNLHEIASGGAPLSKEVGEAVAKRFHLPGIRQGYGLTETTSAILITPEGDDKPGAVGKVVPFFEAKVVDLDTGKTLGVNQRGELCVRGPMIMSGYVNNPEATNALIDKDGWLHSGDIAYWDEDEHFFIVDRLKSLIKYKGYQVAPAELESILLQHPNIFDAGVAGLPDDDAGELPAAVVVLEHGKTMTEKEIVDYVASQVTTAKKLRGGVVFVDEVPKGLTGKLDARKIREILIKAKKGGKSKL

What follows are compounds tested against Luciferin 4-monooxygenase (Photinus pyralis) (UniProt P08659) (assay: Nrf2 qHTS screen for inhibitors: Purified Fluc Biochemical Counterscreen for Hit Validation). Settings: purified firefly luciferase, luminescence inhibition; at 57.5 µM (top of the series).
Source text: Nrf2 is a transcription factor that maintains cellular redox homoestasis and protects cells from xenobiotics. Nrf2 binds to the antioxidant response element (ARE) to induce gene expression of a broad spectrum of genes that encode for antioxidants. […] Finding a small molecule that act as an inhibitor of Nrf2 function would represent a novel therapeutic target that could lead to improvement in survival of patients undergoing chemo- and/or radio- therapy.
A biochemical assay in 1536 well format was developed and utilized to remove compounds that inhibit the luciferase reporter (Fluc) rather than the Nrf2 enzyme. Inhibition of this assay = false positive inhibition of Nrf2.
NIH Chemical Genomics Center [NCGC]
NIH Molecular Libraries Probe Centers Network [MLPCN]
Assay Submitter (PI): Shyam Biswal, Johns Hopkins University
[1] Shibata T., et al., Genetic alteration of Keap1 confers constitutive Nrf2 activation and resistance to chemotherapy in gallbladder cancer. Gastroenterology, 2008.
[2] […]
Three microliter of substrate solution containing 50mM Tris acetate, 13.3 mM Mg-acetate, 0.01mM ATP, 0.01% Tween, 0.05% BSA and 0.01mM D-Luciferin (Sigma, #L9504) was dispensed into 1536 well white solid bottom assay plate (Greiner Bio, #789173-F). […] Luminescence signal was acquired using the PerkinElmer Viewlux plate reader after incubation at room temperature for 10 minutes.
Further: nearly all actives have a fitted effect of over 65% in size.
On the % scale 0 is the no-effect control and ±100 the full control effect.

**Q.** For `N=C(N)c1ccc(OCCCCCOc2ccc(C(=N)N)cc2)cc1`, which activity change, negative = inhibition is on record?
**A.** inactive: 3.49%
